According to patent US9803021B2 (The Regents of the University of California, priority 2012, dated 2017):

Columns and labels:
Format in all cases: cell-based, human
OCI-My 5 cells = assay: Cell proliferation assay (3[H]-thymidine incorporation); details: OCI-My 5, 0.3 pM-25 nM, 3 days
Method: The proliferative status of the cells was determined by measuring ^3[H]-thymidine incorporation.

[1] = tested on: primary myeloma cells from patients; assay: Treatment of primary myeloma cells from patients (trypan blue / MTT); details: 25 nM, 72 h
Method: Trypan blue and MTT assays were used to determine the number of viable cells. The percentage of viable recovered cells was calculated based upon the number of viable cells recovered from DMSO-treated control cells, which was arbitrarily designated as 100%.
Percent viable cell recovery was determined by trypan blue staining, with untreated control cells designated as 100%.

NCI-H929 [2] = assay: MTS assay (cell viability / metabolic activity); details: 3 days
Method: (§1) Percent cell viability was determined using MTS solution (Promega, Madison, Wis.) by measuring absorbance at 490 nm using a Synergy HT Multi-Detection Microplate Reader (BioTek Instruments, Inc., Winooski, Vt.) with untreated cells being 100%. GraphPad Prism (GraphPad Software Inc., La Jolla, Calif.) was used to analyze data by non-linear regression with the log (inhibitor) vs. the response with a variable slope with the IC50 calculated. Data are expressed as a percentage of maximum metabolic activity. The experiments were performed in triplicate.
as §1, with “Metabolic activity” for “Percent cell viability”, “(Promega)” for “(Promega, Madison, Wis.)”, “Instruments Inc.)” for “Instruments, Inc., Winooski, Vt.)”, “Inc.)” for “Inc., La Jolla, Calif.)”, “versus” for “vs.”, “slope.” for “slope with the IC50 calculated.”

IRF-4 in U266 = assay: Western blot of IRF-4; details: U266, 1 nM, 2 days
Method: (§2) Cells were lysed using RIPA buffer (50 mM Tris HCl pH 8, 150 mM NaCl, 1% NP-40, 0.5% sodium deoxycholate, 0.1% SDS) containing a protease inhibitor cocktail (Roche Applied Science, Indianapolis, Ind.). The cytosolic fractions were reduced with β-mercaptoethanol and separated by SDS-PAGE. Following transfer to nitrocellulose membrane (Whatman, Piscataway, N.J.) and blocking, samples were incubated with the following primary rabbit antibodies: anti-IRF4 (Epitomics, Berlingham, Calif.), anti-glyceraldehyde-3-phosphate dehydrogenase (GAPDH; Sigma), anti-ppRb Ser807/811 (Santa Cruz Biotechnology, Santa Cruz, Calif.), anti-cyclin D (Millipore, Billerica, Mass.), or anti-β tubulin (Abcam, Cambridge, Mass.). Secondary anti-rabbit IgG-HRP (GE Healthcare, Billerica, Mass.) was used and the blots were developed using enhanced chemiluminescence (ECL; Thermo Scientific, Waltham, Mass.).
Cells were lysed using RIPA buffer (50 mM Tris-HCl pH 8, 150 mM NaCl, 1% NP-40, 0.5% sodium deoxycholate, 0.1% SDS) containing a protease inhibitor cocktail (Roche Applied Science). The cytosolic fractions were reduced with β-mercaptoethanol and separated by SDS PAGE. […] Films were imaged using a Multilmage™ Light Cabinet (Alpha Innotech Corp.) and analyzed using NIH Image J. Bands were normalized to a GAPDH loading control and expressed as percentage band intensity of untreated cells.

NCI-H929 [3] = assay: Cell cycle analysis (PI DNA content, flow cytometry); details: NCI-H929, 500 pM, 4 days
Method: (§3) Cells were incubated with 1 ml of hypotonic DNA staining buffer (1 mg/ml sodium citrate, 100 μg/ml PI, 20 μg/ml RNase A, and 0.3% Triton X-100 in dH2O) for 30-60 min at 4° C. in the dark. Cells were analyzed by flow cytometry and cell cycle analysis performed using FlowJo software with the Watson Model.
(§4) Cells were incubated with 1 ml of hypotonic DNA staining buffer (1 mg/ml sodium citrate, 100 μg/ml PI, 20 μg/ml RNase A, and 0.3% Triton X-100) for 30-60 minutes at 4° C. in the dark. Cells were analyzed by flow cytometry and cell cycle analysis performed using FlowJo software with the Watson Model.

ANBL-6 [4] = assay: as above; details: ANBL-6, 500 pM, 4 days
Method: as §3, §4

U266 [5] = assay: as above; details: U266, 500 pM, 4 days
Method: as §3, §4

OCI-My5 [6] = assay: as above; details: OCI-My5, 500 pM, 4 days
Method: as §3, §4

8226/S = assay: as above; details: 500 pM, 4 days
Method: as §3, §4

MM1-144 [7] = assay: as above; details: MM1-144, 500 pM, 4 days
Method: as §3, §4

NCI-H929 [8] = assay: Apoptosis assay (Annexin V / PI flow cytometry); details: 3 days
Method: (§5) Cells were analyzed by flow cytometry using FlowJo software.
(§6) Cells were stained with Alexa Fluor 488-labeled Annexin V and propidium iodide (PI) using the Vybrant Apoptosis Kit #2 (Molecular Probes) as per manufacturer's instructions and analyzed by flow cytometry.

ANBL-6 [9] = assay: Apoptosis assay (Annexin V / PI flow cytometry); details: 3 days
Method: as §5, §6

U266 [10] = assay: Apoptosis assay (Annexin V / PI flow cytometry); details: 3 days
Method: as §5, §6

OCI-My5 [11] = assay: Apoptosis assay (Annexin V / PI flow cytometry); details: 3 days; for induction of apoptosis, result in words: OCI-My5, 500 pM (also 1 nM)
Method: as §5, §6

MM1-144 [12] = assay: Apoptosis assay (Annexin V / PI flow cytometry); details: 3 days
Method: as §5, §6

NCI-H929 [13] = assay: Ki-67 stain (flow cytometry); details: NCI-H929, 500 pM, 3 days
Method: (§7) Senescence induced β-galactosidase (β-gal) activity was detected as described previously (Debacq-Chainiaux et al. (2009) Nat. Protoc., 4: 1798-1806) and in Supplemental methods. To detect Ki-67 protein, cells were stained and analyzed by flow cytometry as described in Supplemental methods.
(§8) After treatment, cells were fixed with methanol on ice and then incubated with anti-Ki-67 rabbit IgG (Abcam). Cells were then stained with anti-rabbit IgG-FITC (Sigma) and analyzed by flow cytometry.

MM1-144 [14] = assay: Ki-67 stain (flow cytometry); details: MM1-144, 500 pM, 3 days
Method: as §7, §8

ppRb in MM1-144 = assay: Western blot of ppRb; details: MM1-144, 1 nM, 48 hours
Method: as §2
(§9) Cells were lysed using RIPA buffer (50 mM Tris-HCl pH 8, 150 mM NaCl, 1% NP-40, 0.5% sodium deoxycholate, 0.1% SDS) containing a protease inhibitor cocktail (Roche Applied Science). The cytosolic fractions were reduced with β-mercaptoethanol and separated by SDS PAGE. Following transfer to nitrocellulose membrane (Whatman) and blocking, samples were incubated with the following primary rabbit antibodies: anti-IRF-4 (Epitomics), anti-glyceraldehyde-3-phosphate dehydrogenase (GAPDH; Sigma), or anti-ppRb Ser807/811 (Santa Cruz Biotechnology). Secondary anti-rabbit IgG-HRP (GE Healthcare) was used and the blots were developed using enhanced chemiluminescence (ECL; Thermo Scientific). Films were imaged using a Multilmage™ Light Cabinet (Alpha Innotech Corp.) and analyzed using NIH Image J. Bands were normalized to a GAPDH loading control and expressed as percentage band intensity of untreated cells.

ppRb in OCI-My5 = assay: Western blot of ppRb; details: OCI-My5, 1 nM, 48 hours
Method: as §2, §9

ppRb in NCI-H929 = assay: Western blot of ppRb; details: NCI-H929, 1 nM, 48 hours
Method: as §2, §9

NCI-H929 [15] = assay: Senescence induced β-gal activity at pH 6 (C12FDG, flow cytometry); details: 1 nM, 3 days
Method: (§10) Senescence induced β-galactosidase (β-gal) activity was detected as described previously (Debacq-Chainiaux et al. (2009) Nature Protocols, 4: 1798-1806). […] To induce lysosomal alkalinization, cells were incubated in 100 nM bafilomycin A1 (Sigma) for 1 h. Then cells were incubated for 30 min with the β-gal substrate dodecanoylaminofluorescein di-β-D-galactopyranoside (C12FDG; Invitrogen), which becomes fluorescent after cleavage by β-gal. After washing twice with cold PBS, cells were resuspended in cold PBS containing 1 mM phenylethyl thiogalactoside (PETG), a β-gal inhibitor, and analyzed by flow cytometry for C12-fluorescein.
(§11) Intracellular β-galactosidase (β-gal) activity was measured as an indicator for replicative senescence. […] After treatment, cells were incubated with 100 nM bafilomycin A1 (Sigma) for 1 hour to induce lysosomal alkalinization. Then cells were incubated for 30 minutes with the 33 μM of β-gal substrate dodecanoylaminofluorescein di-β-D-galactopyranoside (C12FDG; Invitrogen), which becomes fluorescent after cleavage to C12-fluorescein. After washing twice with cold PBS, cells were resuspended in cold PBS containing 1 mM phenylethyl thiogalactoside (PETG), a β-gal inhibitor, and analyzed by flow cytometry for C12-fluorescein.

ANBL-6 [16] = assay: as above; details: ANBL-6, 1 nM, 3 days (data not shown)
Method: as §10, §11

U266 [17] = assay: as above; details: U266, 1 nM, 3 days
Method: as §10, §11

OCI-My5 [18] = assay: as above; details: OCI-My5, 1 nM, 3 days (also 4, 6, 7 days)
Method: as §10, §11

MM1-144 [19] = assay: as above; details: MM1-144, 1 nM, 3 days
Method: as §10, §11

## IFNα: recombinant human interferon alpha 2, unfused
OCI-My 5 cells
  proliferation (3[H]-thymidine incorporation), result in words: decrease in proliferation
[1]
  viability of primary myeloma cells, result in words: little effect
NCI-H929 [2]
  cell viability / growth inhibition (MTS assay), result in words: very similar activity
IRF-4 in U266
  IRF-4 expression (Western blot): decrease was similar
NCI-H929 [3]
  % G1: 41.5%
  % G2/M: 25.4%
  % S: 21.7%
  >G2: 7.6%
  Sub G0/G1: 21.2%
ANBL-6 [4]
  % G1: 64.8%
  % G2/M: 17.0%
  % S: 14.3%
  >G2: 0.0%
  Sub G0/G1: 19.8%
  changes in cell cycle / DNA content, result in words: did not exhibit any changes in cell cycle or DNA content
U266 [5]
  % G1: 52.5%
  % G2/M: 14.3%
  % S: 23.6%
  >G2: 5.7%
  Sub G0/G1: 14.0%
  changes in cell cycle / DNA content, result in words: did not exhibit any changes in cell cycle or DNA content
OCI-My5 [6]
  % G1: 30.1%
  % G2/M: 19.2%
  % S: 45.6%
  >G2: 1.2%
  Sub G0/G1: 19.0%
  changes in cell cycle / DNA content, result in words: did not cause apoptosis or blocks to cell cycle progression
8226/S
  changes in cell cycle / DNA content, result in words: did not exhibit any changes in cell cycle or DNA content
MM1-144 [7]
  % G1: 21.0%
  % G2/M: 34.2%
  % S: 31.5%
  >G2: 11.6%
  Sub G0/G1: 10.3%
NCI-H929 [8]; H929 (NCI-H929), 500 pM, listed as IFNα2
  induction of apoptosis, result in words: caused apoptosis
NCI-H929 [8]; NCI-H929, 1 pM
  induction of apoptosis at low concentration, result in words: did not cause apoptosis
ANBL-6 [9]; ANBL-6, 1 pM
  induction of apoptosis at low concentration, result in words: did not cause apoptosis
ANBL-6 [9]; ANBL-6, 500 pM, listed as IFNα2
  induction of apoptosis, result in words: caused apoptosis
U266 [10]; U266, 1 pM
  induction of apoptosis at low concentration, result in words: no effect
U266 [10]; U266, 500 pM, listed as IFNα2
  induction of apoptosis, result in words: caused apoptosis
OCI-My5 [11]; OCI-My5, 5 pM
  induction of apoptosis at low concentration, result in words: no effect
OCI-My5 [11]
  induction of apoptosis, result in words: did not induce apoptosis; also recorded: did not cause apoptosis or blocks to cell cycle progression
OCI-My5 [11]; listed as IFNα2
  induction of apoptosis, result in words: caused apoptosis
MM1-144 [12]; MM1-144, 1 pM
  induction of apoptosis at low concentration, result in words: did not cause apoptosis
MM1-144 [12]; MM144 (MM1-144), 500 pM
  induction of apoptosis, result in words: caused apoptosis
NCI-H929 [13]
  Ki-67 negative (non-dividing) cells, result in words: more Ki-6T cells as compared to untreated control
MM1-144 [14]
  Ki-67 negative (non-dividing) cells, result in words: more Ki-6T cells as compared to untreated control
ppRb in MM1-144
  ppRb levels (Western blot): decreased
ppRb in OCI-My5
  ppRb levels (Western blot): decreased
ppRb in NCI-H929
  ppRb levels (Western blot): decreased
NCI-H929 [15]
  β-gal activity at pH 6 (senescence), result in words: increases in β-gal activity
ANBL-6 [16]
  β-gal activity at pH 6 (senescence), result in words: no increases
U266 [17]
  β-gal activity at pH 6 (senescence), result in words: no increase under any conditions
OCI-My5 [18]
  β-gal activity at pH 6 (senescence), result in words: little or no increase in β-gal activity
MM1-144 [19]
  β-gal activity at pH 6 (senescence), result in words: increases in β-gal activity

“Also recorded” adds a separate entry of the source.
